Patent US7803769B2 (priority 2006, dated 2010)

Chains of the proteins cited; added tags and fusions are not shown.
UniProt P22001, whole entry: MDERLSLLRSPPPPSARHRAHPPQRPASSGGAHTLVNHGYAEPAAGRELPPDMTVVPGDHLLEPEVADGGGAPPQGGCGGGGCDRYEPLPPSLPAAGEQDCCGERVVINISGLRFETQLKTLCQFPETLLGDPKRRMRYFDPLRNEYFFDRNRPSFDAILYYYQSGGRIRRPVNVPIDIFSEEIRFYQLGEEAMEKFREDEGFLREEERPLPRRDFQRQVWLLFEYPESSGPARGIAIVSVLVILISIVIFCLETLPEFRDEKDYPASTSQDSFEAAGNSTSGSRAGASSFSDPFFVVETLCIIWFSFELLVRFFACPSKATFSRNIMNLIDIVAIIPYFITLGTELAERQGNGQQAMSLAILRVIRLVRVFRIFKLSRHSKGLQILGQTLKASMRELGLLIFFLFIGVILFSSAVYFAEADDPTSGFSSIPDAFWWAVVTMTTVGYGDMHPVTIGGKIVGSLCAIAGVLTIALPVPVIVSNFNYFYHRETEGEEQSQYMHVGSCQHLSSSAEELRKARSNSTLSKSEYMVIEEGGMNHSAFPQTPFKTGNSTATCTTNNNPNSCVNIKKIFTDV
UniProt Q09470, whole entry: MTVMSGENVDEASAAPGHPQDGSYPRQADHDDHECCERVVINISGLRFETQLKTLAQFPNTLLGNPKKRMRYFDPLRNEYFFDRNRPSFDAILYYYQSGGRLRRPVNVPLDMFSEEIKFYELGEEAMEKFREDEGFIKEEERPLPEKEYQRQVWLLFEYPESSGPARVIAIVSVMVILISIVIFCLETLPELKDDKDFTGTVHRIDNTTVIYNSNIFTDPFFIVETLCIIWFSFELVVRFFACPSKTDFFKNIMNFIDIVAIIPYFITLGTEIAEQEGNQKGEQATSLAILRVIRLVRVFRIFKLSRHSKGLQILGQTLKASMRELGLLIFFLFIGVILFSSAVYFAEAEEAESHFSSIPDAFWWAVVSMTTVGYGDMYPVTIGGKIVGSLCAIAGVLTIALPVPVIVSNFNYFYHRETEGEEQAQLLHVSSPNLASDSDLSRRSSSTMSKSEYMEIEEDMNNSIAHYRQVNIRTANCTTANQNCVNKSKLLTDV

Tests used:
[1] = molecular target: human Kv1.3 channel (Homo sapiens, UniProt P22001); type: cell-based
[2] = molecular target: T1, human Kv1.1 (Homo sapiens, UniProt Q09470); type: cell-based
T1 construct: expressed in transfected cells; host or cells: HEK293

## CC[C@H](C)[C@@H]1NC(=O)[C@H](CCCCN)NC(=O)[C@@H](NC(=O)[C@H](CCCCN)NC(=O)[C@@H](NC(=O)[C@H](CC(N)=O)NC(=O)[C@@H](NC(=O)[C@@H](NC(=O)[C@@H](NC(=O)CN)C(C)C)[C@@H](C)CC)[C@@H](C)CC)C(C)C)CSSC[C@@H]2NC(=O)[C@H](CCCCN)NC(=O)CNC(=O)[C@H](Cc3ccccc3)NC(=O)[C@H](CCCNC(=N)N)NC(=O)[C@H](CCSC)NC(=O)CNC(=O)[C@H](C)NC(=O)[C@H](CCCCN)NC(=O)[C@H](CCCCN)NC(=O)[C@@H]3CSSC[C@@H](C(=O)N[C@H](C(=O)N4CCC[C@H]4C(=O)N[C@@H](CCCCN)C(=O)O)[C@@H](C)O)NC(=O)[C@H](Cc4c[nH]cn4)NC(=O)[C@H](CSSC[C@H](NC(=O)[C@H](CCC(N)=O)NC(=O)[C@H](CCCNC(=N)N)NC(=O)[C@H](CO)NC1=O)C(=O)N[C@@H](CC(C)C)C(=O)N[C@@H](CCC(=O)O)C(=O)N1CCC[C@H]1C(=O)N3)NC(=O)[C@H](CCCCN)NC(=O)CNC(=O)[C@H](CC(N)=O)NC(=O)[C@H](CCSC)NC2=O [OSK1, reference compound]
[1]
  block of human Kv1.3 current (in words): more potent in inhibiting human Kv1.3 when compared to Kv1.1
[2]
  fold by which the Kv1.1 IC50 is higher than the Kv1.3 IC50: 5 fold
